This assay addresses Lysosomal alpha-glucosidase (Homo sapiens) (UniProt P10253). The assay can be described thus: qHTS Assay for Inhibitors and Activators of Human alpha-Glucosidase Cleavage of Glycogen.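 Further: 0% = full enzyme reaction and -100% = no-enzyme basal signal; the screen sought inhibitors and activators.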 The conditions noted are these: recombinant GAA, glycogen substrate, Amplex Red glucose oxidase fluorescence. An excerpt: NIH Chemical Genomics Center [NCGC] NIH Molecular Libraries Probe Production Centers Network [MLPCN] MLPCN Grant: R03 MH084841-01 Assay Submitter (PI): Wei Zheng NCGC Assay Overview: Alpha-glucosidase is responsible for the hydrolysis of terminal, non-reducing 1,4-linked alpha-D-glucose residues, which releases alpha-D-glucose. It is a lysosomal hydrolase that is required for the degradation of a small percentage (1-3%) of cellular glycogen in humans. Deficiency of this enzyme results in glycogen-storage disease type II (GSDII), also referred to as Pompe disease, an autosomal recessive disorder. Structurally normal glycogen is accumulated in the lysosomes and cytoplasm in affected patients, primarily in muscle tissues. Excessive glycogen storage within lysosomes may interrupt normal functioning of other organelles and leads to cellular injury. In turn, this leads to enlargement and dysfunction of the entire organ involved (eg: cardiomyopathy and muscle weakness). It has been reported that the improper folding and trafficking of alpha-glucosidase resulting from genetic mutations may account for a significant number of Pompe patients. […] We optimized this alpha-glucosidase assay in 1536-well plate format for identification of novel small molecule inhibitors or activators with structures other than the sugar analogs in order to develop new pharmacological chaperones. Previous assays of alpha-Glucosidase have utilized a non-natural fluorescent substrate to probe enzyme activity. The present assay measures enzyme activity on glycogen using a coupled-assay system to glucose oxidase.
NCGC Assay Protocol Summary: This is an enzyme assay using glycogen from bovine liver (Sigma catalog #: G0885) as the substrate and recombinant human alpha-glucosidase as the enzyme preparation. Upon hydrolysis of the substrate, the glucose product can be detected using the Amplex Red Glucose Oxidase Assay Kit (Invitrogen catalog #: A22189). The product of this reaction can be read with a fluorescence plate reader with an excitation at 573 nm and an emission at 610 nm. Data were normalized to the controls for basal activity (without enzyme) and 100% activity (with enzyme). The AC50 values were determined from concentration-response data modeled with the standard Hill equation. Assay buffer for enzyme reaction: 50 mM citric acid (titrated with potassium phosphate to pH 5.0), 0.01% Tween-20 (pH 5.0 is an optimal condition for this enzyme assay) Assay buffer for Amplex Red reaction: Tris-HCl, pH 7.5 1536-well assay protocol for the alpha-glucosidase assay: (1) Add 2 ul/well alpha-glucosidase enzyme solution (4 nM final) (2) Add 23 nL compounds in DMSO solution. The final titration was 0.7 nM to 77 uM. (3) Add 1 ul of glycogen substrate solution (30 ug) (4) Incubate at 37 C for 40 min (5) Add 2 ul tris-HCl buffer with Amplex Red reagents (6) Incubate 45 min at room temperature. (7) Detect the assay plate in a ViewLux plate reader (PerkinElmer) with Ex=573 nm and Em=610nm. Keywords: Alpha-glucosidase, Pompe Disease, pharmacological chaperone, chaperone therapy, high throughput screening, alpha-glucosidase inhibitor, MLSMR, MLSCN, NIH Roadmap, qHTS and NCGC
In general terms: qHTS replaces the single test concentration by a dilution series.

[1] abbreviates: at 76.4 µM (top of the series) unless noted.

The entries are a selection whose mix differs from that of the whole data set. Some tests of the compounds listed are not included; inactive here does not mean inactive elsewhere. Inconclusive results are not listed. Active and inactive are the calls of the source. The call rests on the fitted dose curve; in most records, active means well fitted inhibition curve with a large enough effect; inconclusive means small, poorly fitted or top-dose-only effect, or another doubt; inactive means no such curve, though single readings can be large or run the other way.

With `COc1cc(C(=O)NCC2(N(C)C)CCCCC2)c([N+](=O)[O-])cc1OC`, the activity change, negative = inhibition under setting [1] is inactive: 2.28%.

For the molecule `CN(C)C1(CNC(=O)c2ccc(Br)cc2)CCCCC1`, under setting [1], the activity change, negative = inhibition was inactive: -7.4%.

With `O=C(NCC1(N2CCCCC2)CCCCC1)c1cccc(Cl)c1`, the activity change, negative = inhibition under setting [1] is inactive: -5.3%.

Regarding `COc1ccc(C(=O)NCC2(N(C)C)CCCCC2)cc1Cl`, under setting [1], the activity change, negative = inhibition is inactive: 11.9% [at 76.3 µM].

Consider `COc1cccc(C(=O)NCC2(N3CCCCC3)CCCCC2)c1`, for which, under setting [1], the activity change, negative = inhibition is inactive: 11.4%.

Consider `COc1ccc(Cl)cc1C(=O)NCC1(N(C)C)CCCCC1`, for which the activity change, negative = inhibition under setting [1] is inactive: 5.23%.

With `CC(C)COc1ccc(C(=O)NCC2(N(C)C)CCCCC2)cc1`, under setting [1], the activity change, negative = inhibition is inactive: -7.52% [at 76.3 µM].

For the molecule `O=C(OC1CN2CCC1CC2)C(CO)(c1ccccc1)c1ccccc1` (centres undefined), under setting [1], the activity change, negative = inhibition was inactive: -0.372%.

Consider `COc1cccc(C(=O)NCC2(N3CCOCC3)CCCCC2)c1`, for which, under setting [1], the activity change, negative = inhibition was inactive: 4.64% [at 76.3 µM].

Regarding `CN(C)c1cccc(C(=O)NCC2(N(C)C)CCCCC2)c1`, under setting [1], the activity change, negative = inhibition is inactive: -10.7%.

For the molecule `CC(C)Oc1ccc(C(=O)NCC2(N(C)C)CCCCC2)cc1`, the activity change, negative = inhibition is inactive: 16% (at 76.3 µM (top of the series)) and inactive: -13.4% (at 76.4 µM (top of the series)).

For the molecule `COc1cc(C(=O)NCC2(N(C)C)CCCCC2)cc(OC)c1OC`, under setting [1], the activity change, negative = inhibition was inactive: 7.71% [at 76.3 µM].

On to `Cc1cccc(C(=O)NCC2(N(C)C)CCCCC2)c1`, for which the activity change, negative = inhibition under setting [1] was inactive: 5.93% [at 76.3 µM].

On to `CN1[C@@H]2CC[C@H]1CC(OC(=O)C(O)(c1ccccc1)c1ccccc1)C2` (some centres undefined), for which the activity change, negative = inhibition under setting [1] is inactive: 2.44%.

For the molecule `O=C(NCC1(N2CCCCC2)CCCCC1)c1cc([N+](=O)[O-])ccc1Cl`, under setting [1], the activity change, negative = inhibition was inactive: -2.21%.

Take `CN(C)C1(CNC(=O)c2ccccc2F)CCCCC1`: the activity change, negative = inhibition under setting [1] is inactive: 15.9% [at 76.3 µM].

For the molecule `Cc1ccc(C(=O)NCC2(N3CCCCC3)CCCCC2)cc1`, the activity change, negative = inhibition under setting [1] is inactive: -13.2% [at 76.3 µM].

Regarding `CC(C)N1C(=O)CC2(CCN(CCOC(=O)C(O)(c3ccccc3)c3ccccc3)CC2)C1=O`, under setting [1], the activity change, negative = inhibition is inactive: 6.27%.

On to `CN(C)C1(CNC(=O)c2cccc(Cl)c2)CCCCC1`, for which the activity change, negative = inhibition under setting [1] is inactive: 17.2% [at 76.3 µM].

Turning to `CCN(CC)CC(C)C(C)OC(=O)C(O)(c1ccccc1)c1ccccc1` (centres undefined), the activity change, negative = inhibition under setting [1] is inactive: 2.86%.

Turning to `COc1cc(SC)ccc1C(=O)NCC1(N(C)C)CCCCC1`, the activity change, negative = inhibition under setting [1] is inactive: 2.11%.

Take `CCCCOc1ccccc1C(=O)NCC1(N(C)C)CCCCC1`: the activity change, negative = inhibition under setting [1] was inactive: 13.1% [at 76.3 µM].

As to `Cc1ccccc1C(=O)NCC1(N2CCCCC2)CCCCC1`, the activity change, negative = inhibition under setting [1] is inactive: 8.96%.

On to `CN(C)C1(CNC(=O)c2ccccc2[N+](=O)[O-])CCCCC1`, for which the activity change, negative = inhibition under setting [1] is inactive: 0.714% [at 76.3 µM].

With `CN(C)c1ccc(C(=O)NCC2(N(C)C)CCCCC2)cc1`, the activity change, negative = inhibition under setting [1] is inactive: 5.21%.

Regarding `CN(C)C1CCCC1OC(=O)C(O)(c1ccccc1)c1ccccc1` (centres undefined), the activity change, negative = inhibition under setting [1] is inactive: 8.55%.

Regarding `CCN1CCCC(OC(=O)C2(O)c3ccccc3C=Cc3ccccc32)C1` (centres undefined), the activity change, negative = inhibition under setting [1] was inactive: 1.08%.

For the molecule `Cc1cc(C(=O)NCC2(N3CCCCC3)CCCCC2)ccc1[N+](=O)[O-]`, under setting [1], the activity change, negative = inhibition is inactive: 10.9%.

In the case of `O=C(NCC1(N2CCCCC2)CCCCC1)c1cccc(Br)c1`, the activity change, negative = inhibition under setting [1] was inactive: 2.73%.

For `COc1ccc(C(=O)NCC2(N(C)C)CCCCC2)cc1`, the activity change, negative = inhibition under setting [1] was inactive: -13.2%.

As for `CCOc1cccc(C(=O)NCC2(N(C)C)CCCCC2)c1`, under setting [1], the activity change, negative = inhibition is inactive: -1.24% [at 76.3 µM].

`C=CCN1CCN(CCOC(=O)C(O)(c2ccccc2)c2ccccc2)CC1`: under setting [1], the activity change, negative = inhibition is inactive: 11.6%.

In the case of `O=C(NCC1(N2CCCCC2)CCCCC1)c1cc(F)c(F)cc1Cl`, the activity change, negative = inhibition under setting [1] is inactive: -7.5% [at 76.3 µM].

These data come from PubChem BioAssay AID2100 (National Center for Advancing Translational Sciences (NCATS), 2009).
